Measurements as given in article PMC6766590, “Protocatechuic acid from chicory is bioavailable and undergoes partial glucuronidation and sulfation in healthy humans” (Food Science & Nutrition, 2019).

Test system: human fecal suspensions with gut microbiota

Chicoric acid
Substrate recovered at the initial time point from the fecal suspensions (0 hr, initial substrate dose 1 µmol): 72.8 ± 4.0% | Substrate amount in human fecal suspension (incubation time 0 h, initial dose 1 µmol, 37°C anaerobic): 0.73 ± 0.04 µmol
